# Reference: patent US20170088584A1, “USE OF PEPTIDIC DRUGS FOR OS[…] AND BONE REGENERATION” (UNIVERSIDAD NACIONAL AUTONOMA DE MEXICO, priority 2015, published 2017)
# Experiments:
# [1] = biodistribution of peptide marked with pertechnetate (99mTc); type: in vivo, Wistar rats
# Description: To determine the bio distribution of the peptides object of this invention, they were marked using technetium in the form of pertechnetate (TcO4−). In order to perform the marking, a working solution which contained: 40 ug of the peptides object of this invention, 50 ul of tartrate (2 mg/ml of acetate buffer pH5), 10 μl of SnCl2 (2 mg/ml 0.1 N HCl), 50 μl of gentisic acid (1 mg/ml) and 50 μl of 99m Tc—Na TCO4− (5 mCi) was prepared. Male Wistar rats of 250 g of weight which were at a temperature of 22° C. with a photoperiod of 12 hours and relative humidity at 50% were used. Food and water was ad libitum. To assess bio distribution, groups of three rats were formed and injected intraperitoneally with 40 μl of the marked peptide. They were sacrificed by an overdose of anesthetic at 30’, 1, 3, 6 and 24 hours. Blood samples from the heart, lung, liver, spleen, kidneys, stomach, small intestine, large intestine, muscle, bone, thyroid, brain and tooth were collected. These organs were weighed on an analytical balance and subsequently placed in a NaI(TI) solid scintillation counter to detect the activity of each one of the organs. With this procedure, the percentage of the injected dose per gram of tissue (% ID/g) was obtained.
# [2] = tested on: ovariectomized Wistar rats with osteoporosis; assay: histology of liver, kidney, heart, lung, brain, spleen, muscle after 90 days of peptide administration; type: in vivo, Wistar rats (Rattus norvegicus); details: 20-50 μg/kg i.p. for 90 days
# Description: The control tissues in Panel (A) correspond to: normal tissues: L=liver, K=kidney, H=heart, Lu=lung, B=brain, M=muscle, S=spleen. Panel B) tissues of Wistar rats with osteoporosis treated with the pharmaceutical formulations object of this invention; L=liver, K=kidney, H=heart, Lu=lung, B=brain, S=Spleen M=muscle. […] This means that the synthetic peptides are harmless drugs for osteoporosis treatment, producing no adverse or secondary reactions at cellular or tissue level.
substance,measurement,setting,value
AVIFM,percentage of injected dose per gram of tissue (% ID/g),"[1]; kidney, 3 hours",2.4%
same,percentage of injected dose per gram of tissue (% ID/g),"[1]; kidney, 24 hours",0.02%
same,percentage of injected dose per gram of tissue (% ID/g),"[1]; large intestine, 30′ after i.p. injection",2.1%
same,percentage of injected dose per gram of tissue (% ID/g),"[1]; large intestine, 24 hours",0.3%
same,percentage of injected dose per gram of tissue (% ID/g),"[1]; liver, 1 hour",2.1%
same,percentage of injected dose per gram of tissue (% ID/g),"[1]; liver, 24 hours",0.8%
same,percentage of injected dose per gram of tissue (% ID/g),"[1]; small intestine, 1 hour",2.1%
same,percentage of injected dose per gram of tissue (% ID/g),"[1]; small intestine, 24 hours",0.08%
same,"histological alteration of liver, kidney, heart, lung, brain, spleen, muscle",[2],no histological characteristics suggesting that the administration of peptides in physiological saline solution causes microscopic alteration in these tissues
